Reference: ChEMBL document CHEMBL1148329, “Synthesis and structure-activity studies on N-[5-(1H-imidazol-4-yl)-5,6,7,8-tetrahydro-1-naphthalenyl]methanesulfonamide, an imidazole-containing alpha(1A)-adrenoceptor agonist” (J Med Chem, 2004)
Several values for one entry are separate records, joined by “and”; a condition that tells them apart may be missing. Equal values may be shown once.

By UniProt entry, the sequences of proteins in these tests, tags left out.
UniProt P23944, whole entry: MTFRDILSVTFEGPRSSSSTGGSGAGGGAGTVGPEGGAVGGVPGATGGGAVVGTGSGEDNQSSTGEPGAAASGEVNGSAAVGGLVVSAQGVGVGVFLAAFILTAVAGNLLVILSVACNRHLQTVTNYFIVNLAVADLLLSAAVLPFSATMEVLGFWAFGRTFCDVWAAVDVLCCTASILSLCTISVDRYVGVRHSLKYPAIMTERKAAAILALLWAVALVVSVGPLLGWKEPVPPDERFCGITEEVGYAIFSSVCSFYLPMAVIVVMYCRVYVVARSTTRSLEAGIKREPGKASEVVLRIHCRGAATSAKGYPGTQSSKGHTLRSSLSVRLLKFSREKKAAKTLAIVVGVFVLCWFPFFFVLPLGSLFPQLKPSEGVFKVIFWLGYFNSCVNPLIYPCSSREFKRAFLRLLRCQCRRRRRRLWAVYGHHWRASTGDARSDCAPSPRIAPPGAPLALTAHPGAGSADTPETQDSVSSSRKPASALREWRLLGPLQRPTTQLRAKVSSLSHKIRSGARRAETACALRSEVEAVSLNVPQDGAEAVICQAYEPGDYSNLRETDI
UniProt P18841, whole entry: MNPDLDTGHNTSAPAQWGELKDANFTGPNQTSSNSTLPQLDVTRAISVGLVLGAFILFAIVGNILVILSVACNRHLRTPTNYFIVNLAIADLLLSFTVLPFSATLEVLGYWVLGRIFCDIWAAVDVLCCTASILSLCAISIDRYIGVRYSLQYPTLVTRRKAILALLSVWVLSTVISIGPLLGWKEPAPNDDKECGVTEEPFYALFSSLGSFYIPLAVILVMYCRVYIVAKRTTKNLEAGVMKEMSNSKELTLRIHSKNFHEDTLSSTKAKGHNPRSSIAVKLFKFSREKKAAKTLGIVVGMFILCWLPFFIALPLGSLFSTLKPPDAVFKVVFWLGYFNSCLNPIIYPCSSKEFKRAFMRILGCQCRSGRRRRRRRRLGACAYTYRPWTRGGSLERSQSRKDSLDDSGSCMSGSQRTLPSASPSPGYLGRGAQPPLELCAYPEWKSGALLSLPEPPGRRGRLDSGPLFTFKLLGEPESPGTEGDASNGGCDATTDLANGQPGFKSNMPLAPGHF
UniProt P15823, whole entry, looked up: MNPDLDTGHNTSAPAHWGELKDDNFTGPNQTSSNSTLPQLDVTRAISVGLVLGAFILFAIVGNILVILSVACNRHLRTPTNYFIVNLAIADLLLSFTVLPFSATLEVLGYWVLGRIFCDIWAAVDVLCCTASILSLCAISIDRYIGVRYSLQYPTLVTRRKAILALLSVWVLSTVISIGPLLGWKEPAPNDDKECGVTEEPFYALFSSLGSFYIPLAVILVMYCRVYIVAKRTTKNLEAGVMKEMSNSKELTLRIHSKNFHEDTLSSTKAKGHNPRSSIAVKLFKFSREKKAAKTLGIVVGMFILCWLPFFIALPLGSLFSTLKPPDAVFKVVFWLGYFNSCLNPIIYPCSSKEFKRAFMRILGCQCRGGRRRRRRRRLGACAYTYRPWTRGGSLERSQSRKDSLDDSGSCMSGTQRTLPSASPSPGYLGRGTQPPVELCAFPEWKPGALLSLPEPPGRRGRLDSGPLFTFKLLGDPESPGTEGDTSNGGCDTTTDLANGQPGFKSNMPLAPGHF
UniProt P08913, whole entry: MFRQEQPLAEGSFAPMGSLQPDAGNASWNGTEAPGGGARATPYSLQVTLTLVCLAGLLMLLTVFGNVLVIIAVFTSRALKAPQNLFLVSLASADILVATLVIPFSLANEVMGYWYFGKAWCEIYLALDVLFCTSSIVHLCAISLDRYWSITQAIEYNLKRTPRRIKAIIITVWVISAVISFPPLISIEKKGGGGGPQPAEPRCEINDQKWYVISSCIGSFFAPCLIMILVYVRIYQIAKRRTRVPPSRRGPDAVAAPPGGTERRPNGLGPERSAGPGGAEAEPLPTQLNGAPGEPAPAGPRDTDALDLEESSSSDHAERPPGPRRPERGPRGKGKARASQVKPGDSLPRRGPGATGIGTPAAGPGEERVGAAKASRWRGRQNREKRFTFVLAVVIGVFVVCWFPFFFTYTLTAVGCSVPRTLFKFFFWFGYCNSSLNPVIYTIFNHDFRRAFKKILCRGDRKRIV
UniProt P22909, whole entry: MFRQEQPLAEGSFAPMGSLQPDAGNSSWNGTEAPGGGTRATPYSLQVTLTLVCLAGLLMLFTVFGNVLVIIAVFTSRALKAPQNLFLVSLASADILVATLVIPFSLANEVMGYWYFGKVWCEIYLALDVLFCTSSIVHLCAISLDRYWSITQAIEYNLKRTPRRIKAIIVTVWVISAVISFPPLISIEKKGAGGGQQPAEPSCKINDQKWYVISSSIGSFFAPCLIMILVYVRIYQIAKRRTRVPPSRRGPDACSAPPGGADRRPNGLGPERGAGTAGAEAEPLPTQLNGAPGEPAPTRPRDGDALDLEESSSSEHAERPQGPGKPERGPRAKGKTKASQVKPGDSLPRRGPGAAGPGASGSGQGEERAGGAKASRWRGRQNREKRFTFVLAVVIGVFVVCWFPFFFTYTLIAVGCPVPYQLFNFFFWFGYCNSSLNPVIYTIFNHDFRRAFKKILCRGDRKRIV

Tests used:
[1] = biological target: Alpha-1D adrenergic receptor (Rattus norvegicus, UniProt P23944); assay: In vitro binding affinity towards alpha-1D adrenergic receptor of rat clone in radioligand binding assay
Procedure, shortened: (§1)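 Radioligand binding at α1 subtypes: α1A from rat submaxillary gland, α1B hamster clone, α1D rat clone. Run essentially per an earlier method. Values are pKi (−log Ki) ± SEM from ≥3 determinations (2 where footnoted).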

[2] = biological target: Alpha adrenergic receptor 1A and 1D (Rattus norvegicus) (UniProt P23944+P43140); assay: Selectivity is ratio of pKi (binding affinity) of Alpha-1D to that of alpha1A; type: protein assay
[3] = biological target: T1, Alpha-1A adrenergic receptor (Rattus norvegicus, UniProt P43140); assay: In vitro binding affinity towards alpha-1A adrenergic receptor of rat submaxillary gland in radioligand binding assay
T1 sequence (P43140 whole entry): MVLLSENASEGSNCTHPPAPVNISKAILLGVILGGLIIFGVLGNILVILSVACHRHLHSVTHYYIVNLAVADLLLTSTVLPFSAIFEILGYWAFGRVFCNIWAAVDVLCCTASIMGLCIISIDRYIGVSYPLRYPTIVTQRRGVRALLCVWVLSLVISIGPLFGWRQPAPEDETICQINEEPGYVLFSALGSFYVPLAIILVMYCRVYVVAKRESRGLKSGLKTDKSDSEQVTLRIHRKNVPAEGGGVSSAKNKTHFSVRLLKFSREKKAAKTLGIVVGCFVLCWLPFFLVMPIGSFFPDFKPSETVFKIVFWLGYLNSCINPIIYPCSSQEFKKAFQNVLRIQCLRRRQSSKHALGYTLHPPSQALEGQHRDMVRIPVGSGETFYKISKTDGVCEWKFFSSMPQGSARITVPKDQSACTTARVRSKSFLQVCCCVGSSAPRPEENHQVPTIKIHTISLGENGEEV
Procedure, shortened: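 Radioligand binding at α1 subtypes: α1A from rat submaxillary gland, α1B hamster clone, α1D rat clone. Run essentially per an earlier method.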

[4] = biological target: Alpha-1B adrenergic receptor (Mesocricetus auratus, UniProt P18841); assay: In vitro binding affinity towards alpha-1B adrenergic receptor of hamster clone in radioligand binding assay; type: single protein; procedure, shortened: as §1
[5] = biological target: Alpha adrenergic receptor 1A and 1B (Rattus norvegicus) (UniProt P15823+P43140); assay: Selectivity is ratio of pKi (binding affinity) of alpha-1B receptor to that of alpha-1A receptor.; type: protein assay
[6] = biological target: T2, Alpha-1A adrenergic receptor (Oryctolagus cuniculus) (UniProt O02824); assay: Functional agonism of the compounds to constrict tissue containing the alpha-1A adrenergic receptor in rabbit urethra; type: tissue-based
T2 sequence (whole entry): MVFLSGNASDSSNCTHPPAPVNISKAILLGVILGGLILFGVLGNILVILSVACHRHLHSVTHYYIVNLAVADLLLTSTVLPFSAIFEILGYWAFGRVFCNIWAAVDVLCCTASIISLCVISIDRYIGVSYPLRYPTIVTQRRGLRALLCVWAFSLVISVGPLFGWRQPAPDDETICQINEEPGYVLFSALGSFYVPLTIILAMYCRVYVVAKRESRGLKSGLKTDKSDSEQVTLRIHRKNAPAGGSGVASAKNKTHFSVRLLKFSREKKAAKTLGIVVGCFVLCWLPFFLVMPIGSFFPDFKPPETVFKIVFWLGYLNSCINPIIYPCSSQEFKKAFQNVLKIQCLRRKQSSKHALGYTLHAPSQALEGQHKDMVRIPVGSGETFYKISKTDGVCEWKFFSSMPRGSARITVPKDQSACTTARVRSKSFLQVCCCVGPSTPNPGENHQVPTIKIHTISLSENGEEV
Procedure, shortened: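 α1-agonist dose–response curves in isolated tissue: rabbit urethra (α1A), rat spleen (α1B), rat aorta (α1D). Agonist potency and efficacy read from the concentration–response curves.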

[7] = biological target: Alpha-2A adrenergic receptor (Homo sapiens, UniProt P08913); assay: In vitro binding affinity towards alpha-2A adrenergic receptor of human clone in radioligand binding assay
Canis familiaris = species on record: Canis familiaris; assay: Ratio of MAP ED delta20 to that of IUP ED delta5
[8] = Relative affinities for alpha-2a and alpha-1A receptors
Rattus norvegicus = species on record: Rattus norvegicus; assay: Relative affinities for alpha2B and alpha1A receptors
[9] = Selectivity is ratio of efficacy of alpha-2A to that of alpha1A adrenoceptor; type: functional
[10] = biological target: Alpha-2A adrenergic receptor (Rattus norvegicus) (UniProt P22909); assay: Functional agonism to constrict tissue containing alpha-2A adrenergic receptor in rat prostatic vas deferens; type: tissue-based
Procedure, shortened: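 For α2A, dose–response curves measured inhibition of field-stimulated contraction of rat prostatic vas deferens. pD2 is −log EC50, the concentration giving 50% of total relaxation. Efficacy is percent relative to clonidine. Values are mean ± SEM.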

[11] = biological target: Alpha-1B adrenergic receptor (Rattus norvegicus) (UniProt P15823); assay: Functional agonism of the compounds to constrict tissue containing the alpha-1B adrenergic receptor in rat spleen; type: tissue-based
Procedure, shortened: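 Agonist dose–response curves were run on isolated tissue: rabbit urethra for α1A, rat spleen for α1B, and rat aorta for α1D.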

Structure (SMILES): CS(=O)(=O)Nc1cccc2c1CCC=C2c1c[nH]cn1
- Ki [1]: 1.7 µM
- Selectivity [2]: 1 and 3
- Ki [3]: 1.15 µM
- Ki [4]: 10.5 µM and > 10 µM
- Selectivity [5]: 9 and > 10
- pD2 [6]: 4.67 and 4.54

Structure (SMILES): CCS(=O)(=O)Nc1cccc2c1CCC2c1c[nH]cn1 (stereo not drawn)
- Ki [7]: 0.0977 µM
- Ratio (Canis familiaris): 1.3
- Selectivity [2]: 40
- Selectivity [8]: 4
- Selectivity (Rattus norvegicus): 8
- Selectivity [5]: 90
- pD2 [6]: 7.18
- Selectivity [9]: 3
- pD2 [10]: 6.68

Structure (SMILES): CS(=O)(=O)Nc1cccc2c1CCCC2c1c[nH]cn1 (stereo not drawn)
- Ratio (Canis familiaris): 4.8
- Selectivity [2]: 8
- Selectivity [8]: 0.5
- Selectivity (Rattus norvegicus): 3
- Ki [3]: 0.195 µM
- Ki [4]: 4.68 µM
- Selectivity [5]: 20
- pD2 [6]: 6.35
- Selectivity [9]: 0.08
- pD2 [10]: 7.45

Structure (SMILES): CC(=O)Nc1cccc2c1CCCC2c1c[nH]cn1 (stereo not drawn)
- pD2 [11]: 4.84
- Ratio (Canis familiaris): 3.1
- Ki [1]: > 10 µM
- Selectivity [2]: 19
- Selectivity [8]: 1
- Selectivity (Rattus norvegicus): 6
- Ki [4]: > 10 µM
- Selectivity [5]: 20
- pD2 [6]: 5.89
- Selectivity [9]: 0.2
- pD2 [10]: 6.64

Structure (SMILES): CS(=O)(=O)Nc1cccc2c1CCC[C@H]2c1c[nH]cn1
- Ratio (Canis familiaris): 4.4
- Selectivity [2]: 20
- Selectivity [5]: 20
- pD2 [6]: 6.45
- Selectivity [9]: 0.03
- pD2 [10]: 8.05

Structure (SMILES): CS(=O)(=O)Nc1cccc2c1OCCC2c1c[nH]cn1 (stereo not drawn)
- pD2 [11]: 5.09
- Ratio (Canis familiaris): 2.3
- Selectivity [2]: 2
- Ki [4]: > 10 µM
- Selectivity [5]: 20
- pD2 [6]: 6
